Source: patent US11104700B2, “Oligonucleotides” (OXFORD UNIVERSITY INNOVATION LIMITED, priority 2017, dated 2021)

Tested on: Phosphodiesterase 1 from Crotalus adamanteus venom

Substance | time to full digestion by 3′-exonuclease (gel) [min]
5′-dCGACG^MeC^LtT^LTGCAGC [ON6] | > 30
CGACG^MeCT^LTGCAGC [ON4] | ≤ 5
